One test concerns the target RORα (Homo sapiens, UniProt P35398). Briefly: Gal4-RORα-LBD UAS-luciferase reporter assay in TRex-CHO-K1 cells (doxycycline-stimulated). The following applies: read-out: IC50 (μM, N=4) ROR-Alpha; library 2520.
The target of another test is RORγ (Mus musculus, UniProt P51450). Briefly: Gal4-RORγ-LBD UAS-luciferase reporter assay in TRex-CHO-K1 cells (doxycycline-stimulated).
In a further test the target is RORβ (Rattus norvegicus, UniProt P45446). Briefly: Gal4-RORβ-LBD UAS-luciferase reporter assay in TRex-CHO-K1 cells (doxycycline-stimulated). The conditions noted are these: read-out: IC50 (μM, N=4) ROR-Beta; library 2520.

Amino acid sequences for entries named in this document (tags omitted). Residues count along the entry.
UniProt P35398, 266-523 limits assumed: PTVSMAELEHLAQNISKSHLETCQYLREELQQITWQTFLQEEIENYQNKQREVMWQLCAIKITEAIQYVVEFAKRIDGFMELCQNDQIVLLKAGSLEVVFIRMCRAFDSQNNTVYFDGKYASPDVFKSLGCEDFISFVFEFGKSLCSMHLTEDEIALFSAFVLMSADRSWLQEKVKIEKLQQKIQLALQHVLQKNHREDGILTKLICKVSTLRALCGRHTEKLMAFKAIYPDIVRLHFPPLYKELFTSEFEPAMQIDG
UniProt P51450, 261-516 limits assumed: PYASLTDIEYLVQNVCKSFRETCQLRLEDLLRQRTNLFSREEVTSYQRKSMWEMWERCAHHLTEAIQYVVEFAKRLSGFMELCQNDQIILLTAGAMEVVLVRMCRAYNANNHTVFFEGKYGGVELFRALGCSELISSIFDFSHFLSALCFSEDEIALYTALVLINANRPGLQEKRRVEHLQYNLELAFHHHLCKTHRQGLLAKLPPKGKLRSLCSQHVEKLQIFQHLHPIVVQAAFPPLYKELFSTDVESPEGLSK
UniProt P45446, 216-470 limits assumed: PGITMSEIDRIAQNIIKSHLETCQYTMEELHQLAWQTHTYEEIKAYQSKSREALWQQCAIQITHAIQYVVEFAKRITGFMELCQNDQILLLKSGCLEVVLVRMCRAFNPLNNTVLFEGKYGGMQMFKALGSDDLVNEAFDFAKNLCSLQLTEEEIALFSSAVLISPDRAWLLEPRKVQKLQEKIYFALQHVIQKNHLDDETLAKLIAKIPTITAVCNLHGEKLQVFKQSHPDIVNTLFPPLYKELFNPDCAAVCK

Consider `CCC(C(=O)NC1=NC[C@H]([C@@H](C)CC)N1CCC(C)c1ccccc1)c1ccccc1` (stereo partly shown), for which the IC50 on RORα was found to be 6.74 µM; on RORγ (read-out: IC50 (μM, N=4) ROR-Gamma, library 2520), 5.07 µM; on RORβ, 4.87 µM. Also, the “% Inhibition at 4 μM (N=3)” value at RORγ (library 2520, RORγ cells) is 75.9%.

(Values after article PMC9029089, “1,5-Disubstituted Acylated 2-Amino-4,5-dihydroimidazoles as a New Class of Retinoic Acid Receptor–Related Orphan Receptor (ROR) Inhibitors” (International Journal of Molecular Sciences, 2022).)
